By inhibition is commonly meant the percentage by which the read-out fell short of the control. Read a low inhibition as little suppression.

In the experiment the test system is Dihydrofolate reductase (Staphylococcus aureus). To be noted: dose 100.0 nM.

Bounds are passed on as bounds.

On to `COc1cc(C(C)C)c(Oc2cnc(N)nc2N)cc1-c1ccccc1`, for which the inhibition is > 100%.
Take `CCc1cc(Oc2cnc(N)nc2N)c(C(C)C)cc1OC`: the inhibition stood at 38.9%.

The values are drawn from ChEMBL document CHEMBL5528082 (J Med Chem, 2024).
